Yeast mating assay B: variants of the scFv Ab-14

Data: MIT Lincoln Laboratory AlphaSeq set, Li et al. 2023, doi:10.1038/s41467-023-39022-2, as distributed in FLAb.

Antigen: PDVDLGDISGINAS, a 14-residue peptide of the SARS-CoV-2 spike HR2 region.

Parent: Ab-14, a human scFv built as VH, a 15-residue (Gly4Ser)3 linker, VL. Only the CDRs of the heavy chain vary.
VH: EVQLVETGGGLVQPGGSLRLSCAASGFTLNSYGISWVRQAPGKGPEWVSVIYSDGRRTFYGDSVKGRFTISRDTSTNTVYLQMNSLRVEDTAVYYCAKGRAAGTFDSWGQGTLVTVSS
VL: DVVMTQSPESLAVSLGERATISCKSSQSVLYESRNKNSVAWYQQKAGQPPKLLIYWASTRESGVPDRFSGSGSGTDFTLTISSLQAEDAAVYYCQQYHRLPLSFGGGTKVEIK

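Phage display of a naive human antibody library on the peptide gave the parent. These sequences belong to a second round, designed from the earlier measurements on random variants of the parent. Several design methods are mixed in this list. AlphaSeq pools MATa yeast showing the antibodies with MATalpha yeast showing the peptide. The frequency of each diploid, read from paired DNA barcodes, reflects how well the two displayed proteins bind. A regression on co-assayed BCL2-family reference pairs converts the normalised counts of each replicate to an apparent Kd. The assay was run in six technical replicates.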

Each variant is given by its three heavy chain CDRs, as the data file delimits them; those of the parent are GFTLNSYGIS, VIYSDGRRTFYGDSVK, GRAAGTFDS.
This list holds designs with more than six substitutions.
Each Kd is an estimate from the mating assay, the geometric mean of the replicates in which the pair was seen; lower is stronger.
"nd" marks a missing value. The strain was present, yet no cells mated with the target were sequenced in any replicate, which points to weak or no binding.
The authors averaged sequences with at least three values out of six and counted those with two or fewer as poor binders.

For GFDLNEYGIS / VIYADGRRTFYTDSVK / GEDAGTFDQ, the assay gave 1.5 nM (6 of 6 replicates). The variant GFDLDEYGIS / VIYADGQRTAYADSVK / GENAGTFDT gave 630 pM (6 of 6 replicates). The variant GFDLNEYGIS / VIYADGMRTAYANDVK / GNVAGTFDI showed 360 pM (6 of 6 replicates). The variant GFQINEYGIS / VIYADGLRTAYSQEVK / GQDTVNFVD showed nd (0 of 6 replicates). The variant GFDLNEYGIS / VIYADGMRTAYSDSVK / GANAGTFDI gave 300 pM (6 of 6 replicates). The variant GFDLNEYGIS / VIYADGMRTAYSDSVK / GSNAGTFDV showed 17 nM (2 of 6 replicates).

The variant GFKLNEYGIS / VIYADGQRKSYADSFK / GTWAGMVIE gave 2.9 nM (1 of 6 replicates). The variant GFDLDSYGIS / VIYADGRRKAYHDSVK / GQNGSVSFV showed nd (0 of 6 replicates). The variant GFDLNEYGIS / VIYADGQRTAYSDSVK / GNVAGTFDI showed 270 pM (6 of 6 replicates). With GFNLDEYGIS / VIYADGRRTAYKDTVK / GVRTWEFDL the result was nd (0 of 6 replicates). With FFKLEDYGIS / VIYADGKRKAYVQNVK / GQIAGTFDV the result was nd (0 of 6 replicates). The variant GFDLLEYGIS / VIYADGMRVAYAKDVK / GMEGQFTVD gave nd (0 of 6 replicates).

The variant GFNLEEVGIS / VIYADGLRSAYVDAVK / GGVVDVDFV showed nd (0 of 6 replicates). For GFDLDEYGIS / VIYADGMRTYYADSVK / GEVAGTFDT, the assay gave 410 pM (6 of 6 replicates). For GFDLNEYGIS / VIYADGKRTAYADSVK / GEAAGTFDS, the assay gave 530 pM (6 of 6 replicates). With GFDLNEYGIS / VIYADGLRTSYADSVK / GTNAGTFDQ the result was 17 pM (5 of 6 replicates). With GFDLNEYGIS / VIYADGSRTAYADSVK / GEQAGTFDV the result was 120 pM (6 of 6 replicates). For GFQLDEYGIS / VIYADGQRSAYSENVK / GQHGGMTVS, the assay gave nd (0 of 6 replicates).

The variant GFDLNEYGIS / VIYADGRRTFYIDSVK / GTNAGTFDK showed 340 pM (6 of 6 replicates). With GFHLDEYGIS / VIYADGLRYHYANSVK / GEMAGTFTT the result was nd (0 of 6 replicates). With GFDLNEYGIS / VIYADGMRTAYADKVK / GNVAGTFDI the result was 360 pM (6 of 6 replicates). The variant GYDIQDYGIS / VIYADGVRVAYHDSVK / GQTAGIFLL showed nd (0 of 6 replicates). The variant GSNLDEYGIS / VIYADGMRQAYIEDVK / GTNGVSVFF gave nd (0 of 6 replicates). For GFDLNEYGIS / VIYADGMRTFYSDSVK / GNVAGTFDT, the assay gave 260 pM (6 of 6 replicates).

With GFDLNEYGIS / VIYADGMRTAYVDNVK / GEVAGTFDI the result was 10 nM (4 of 6 replicates). The variant GFDLEEYGIS / VIYADGKRTAYADSVK / GNEAGTFDV showed 1.1 nM (6 of 6 replicates). The variant GFNLNEYGIS / VIYADGRRTFYSDSVK / GEQGGTFDV showed 4.7 nM (6 of 6 replicates). With GFDIEEYGIS / VIYADGLRQYYKDNFK / GWNDGTIDV the result was nd (0 of 6 replicates). With GFDLDEYGIS / VIYADGMRSAIRESVK / GEISGTLDA the result was 4.7 nM (6 of 6 replicates). For GFDINEYGVS / VIYADGMRSYYADKVK / GSLGALFDV, the assay gave nd (0 of 6 replicates).

The variant GFNLDEYGIS / VIYADGRRTFYQDSVK / GEVAGTFDK showed 490 pM (6 of 6 replicates). The variant GFDLNEYGIS / VIYADGRRTFYIDSVK / GTNAGTFDL showed nd (0 of 6 replicates). The variant GFDLNEYGIS / VIYADGMRTAYADDVK / GQNAGTFDM gave 9.1 nM (1 of 6 replicates). With GFDLNEYGIS / VIYADGVRTAYADNVK / GETAGTFDL the result was 130 pM (6 of 6 replicates). For GFKLNEYGIS / VIYADGQRVAYTDSFK / GTQAGMVFE, the assay gave 8.2 nM (1 of 6 replicates). For GFSLDEQGIS / VIYADGIRRVYIDKVK / GQYGGDFIE, the assay gave nd (0 of 6 replicates).

For GFDLNEYGIS / VIYADGMRTYYADSVK / GETAGTFDI, the assay gave 630 pM (6 of 6 replicates). With GFDLNEYGIS / VIYADGRRTAYSDSVK / GETGGTFDS the result was 810 pM (6 of 6 replicates). The variant KFDIEHYGIS / VIYADGKRTGYSNAVK / GWQGGTFNT gave 42 nM (6 of 6 replicates). The variant GFDLNEYGIS / VIYADGRRTFYSDSVK / GEVAGFFDQ showed 660 nM (3 of 6 replicates). With GFDLGEYGIS / VIYADGHRRAYSDDVK / GAHSGSVQT the result was nd (0 of 6 replicates). The variant GFDLNEYGIS / VIYADGMRTFYADSVK / GQVAGTFDI gave 620 pM (5 of 6 replicates).

The variant GFTLTDNGIS / VIYSRGRRTFYGDSVK / GRSALTFIS showed nd (0 of 6 replicates). The variant GFSLDEYGIS / VIYADGRRTFYSDDVK / GNVAGTFDV gave 670 pM (6 of 6 replicates). The variant GFGLDEYGIS / VIYADGFRAYYHDNVK / GFNSGVDIL gave nd (0 of 6 replicates). The variant GFDLNEYGIS / VIYADGMRTAYTDKVK / GNNAGTFDV showed 950 pM (6 of 6 replicates). For GFDLNEYGIS / VIYADGKRTFYADSVK / GQVAGTFDM, the assay gave 470 pM (6 of 6 replicates).

The 4 strongest on average among those seen in every replicate, once more:

{"CDR-H1": "GFDLNEYGIS", "CDR-H2": "VIYADGSRTAYADSVK", "CDR-H3": "GEQAGTFDV", "Kd (apparent)": "120 pM", "seen in": "6 of 6"}
{"CDR-H1": "GFDLNEYGIS", "CDR-H2": "VIYADGVRTAYADNVK", "CDR-H3": "GETAGTFDL", "Kd (apparent)": "130 pM", "seen in": "6 of 6"}
{"CDR-H1": "GFDLNEYGIS", "CDR-H2": "VIYADGMRTFYSDSVK", "CDR-H3": "GNVAGTFDT", "Kd (apparent)": "260 pM", "seen in": "6 of 6"}
{"CDR-H1": "GFDLNEYGIS", "CDR-H2": "VIYADGQRTAYSDSVK", "CDR-H3": "GNVAGTFDI", "Kd (apparent)": "270 pM", "seen in": "6 of 6"}

A sequence measured in both rounds can read differently, since the two assays cover different ranges.
The parent sequence was in this pool as ten entries: three were never detected, three once, and four in most replicates, with averages from 2.2 nM to 240 nM.
Empty control strains, which show no peptide, gave a signal in 1% of pairings with all heavy chain designs; the median was 120 nM and 95% of these signals were weaker than 7.0 nM. No background was subtracted.